Measurements published in patent publication US10220069B2, “Compositions and methods for treating diabetes” (THE JOHNS HOPKINS UNIVERSITY, priority 2014, dated 2019).
“Also recorded” adds a separate entry of the source.

Amino acid sequences for entries named in this document (tags omitted). A change or cut given only in a name is not applied to a line headed by its entry.
UniProt Q91V45: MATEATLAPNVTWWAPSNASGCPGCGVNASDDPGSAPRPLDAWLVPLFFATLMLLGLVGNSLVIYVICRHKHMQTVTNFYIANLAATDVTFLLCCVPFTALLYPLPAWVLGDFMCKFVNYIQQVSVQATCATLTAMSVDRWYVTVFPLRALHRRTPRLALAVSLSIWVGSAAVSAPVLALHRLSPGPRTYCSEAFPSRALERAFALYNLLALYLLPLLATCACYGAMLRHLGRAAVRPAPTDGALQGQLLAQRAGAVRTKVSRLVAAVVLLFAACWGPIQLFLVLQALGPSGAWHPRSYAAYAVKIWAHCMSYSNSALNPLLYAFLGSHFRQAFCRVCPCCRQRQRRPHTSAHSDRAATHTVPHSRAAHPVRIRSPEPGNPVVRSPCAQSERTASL

Assays:
Kiss1R [1] = biological target: T1, Kiss1R (Mus musculus, UniProt Q91V45); assay: Islet cAMP concentrations (ELISA) in response to kisspeptin; type: cell-based
T1 construct: Mouse brain, mouse islets, insulinoma cells, and human islets express Kiss1R; from tissue; host or cells: isolated mouse pancreatic islets (WT / Kiss1Rfl/fl, C57Bl/6 background)
Procedure: For studies with plasma incubation, a final concentration of plasma was 1% or 10% (vol/vol). Plasma was treated with a protease inhibitor cocktail containing 4-(2-Aminoethyl) benzenesulfonyl fluoride hydrochloride (1 mM), Aprotinin (0.8 μM), bestatin (50 μM), (1S,2S)-2-(((S)-1-((4-Guanidinobutyl)amino)-4-methyl-1-oxopentan-2-yl)carbamoyl)cyclopropanecarboxylic acid (15 μM), EDTA (5 μM), leupeptin (20 μM), pepstatin A (10 μM) (Liu et al., 2013) (Thermo-Fisher), K54, K10, E4 were added at the concentrations indicated in the relevant figures. Islets were taken in 0.18M HCL/70% ethanol to extract and measure total islet insulin content. cAMP concentrations were measured in islet extracts using ELISA (Enzo Life Sciences).

Kiss1R [2] = biological target: T1, Kiss1R; assay: Glucose stimulated insulin secretion (GSIS) from cultured mouse islets, static incubation; type: cell-based; design: GSIS at very high kisspeptin concentration: dose or concentration left out as unconfirmed
Procedure: Isolated Islet Studies. Islet isolation was performed by collagenase digestion, gradient centrifugation, and three rounds of microscope-assisted manual picking of islets. Static incubation studies were conducted as previously described with 20 handpicked, equal-sized islets were studied in each group (Song et al., 2011). After overnight culture (37_C, 5% CO2, and 95% O2 in humid chamber) of isolated islets in RPMI 1640 (Mediatech) containing 5 mM glucose, 1% each Na-Pyruvate, HEPES, Penicillin/Streptomycin, and 0.2% BSA, islets were switched to either 10 or 20 mM glucose containing RPMI 1640. Where indicated, Kisspeptin-10 (0-100 nM, and […]), E4 (10 nM), or vehicle (PBS) was added. After 30 min incubation glucose concentrations, supernatant was taken for insulin measurements and pelleted islets were taken in acid ethanol (0.18M HCl in 70% ethanol) for insulin measurements in islets (ELISA, Alpco). Islet protein concentration was measured using the BCA method (Thermo Fisher). Dose response curves of GSIS inhibition by Kisspeptin-54 or Kisspeptin-10 (0-100 nM) to serve as a functional bioassay for plasma kisspeptin1 activity performed at six separate times provided intra-assay and interassay coefficient of variations of 7.3% and 9.2%, respectively.
Islet studies. Islet isolation was performed by collagenase digestion, gradient centrifugation and three rounds of microscope-assisted manual picking of islets (Song et al., 2011). Static incubation studies were conducted as previously described with 20 hand-picked equalized islets were studied in each group. Islets were cultured in RPMI 1640 medium (Invitrogen) containing 10 or 20 mM D-glucose (as indicated) and supplemented with 0.2% bovine serum albumin, 1% each Na-Pyruvate, HEPES, Penicillin/Streptomycin. […] Islet protein concentration was measured using the BCA method (Thermo Fisher).
Insulin secretion during static incubation. […] Islet protein concentration was measured using the BCA method (Thermo Fisher). […]

Kiss1R [3] = biological target: T1, Kiss1R; assay: Islet perifusion assay, first and second phase GSIS; type: cell-based; details: isolated mouse islets
Procedure: Perifusion studies were performed as previously published (Song et al., 2013; Song et al., 2011) with slight modifications. The perifusate was Krebs ringer buffer (KRB) (37 C, pH 7.4) containing 0.2% BSA fraction V, 24 mM sodium bicarbonate and was gassed with 95% air and 5% CO2. Perifusion (1 ml/min) occurred for the first 30 minutes with a KRB containing 3 mM glucose for equilibration, after which time the perifusate was collected in 1 ml fractions. After additional 10 minutes, glucose in the perifusate was increased to 10 mM. Where indicated, K10 (10 nM) or E4 (10 nM) was added to the perifusate. Insulin was measured in selected individual eluent fractions at 30, 35, 40, 42, 45, 50, 55, 60 min (Alpco ELISA). The first 10 minutes after increasing glucose was defined as first phase, the period thereafter was defined as second phase of insulin secretion. At the end of the perifusion protocol, 30 mM KCL was administered into the perifusate to depolarize β-cells. Insulin levels were normalized to total islet protein, which was spectrophotometrically determined (Eppendorf) after completion of the perifusion protocol.

Kiss1R [4] = biological target: T1, Kiss1R; assay: ipGTT with ip coinjection of kisspeptin and glucose; type: in vivo
Procedure: Intraperitoneal glucose tolerance (ipGTT) and insulin tolerance (ipITT) tests were performed according to standard protocols (Song et al., 2013; Song et al., 2011). After 9 am-3 pm fasting, animals were administered 20% D-glucose (via ip injection), insulin 0.5 U/kg i.p. (Novolin), glucagon (100 μg/kg i.p. (Sigma)). K54 ([…] Gly-Ala-Val-Leu-Val-Gln-Arg-Glu- Lys-Asp-Leu-Pro-Asn-Tyr-Asn-Trp-Asn-Ser-Phe-Gly-Leu-Arg-Phe-NH2 (SEQ ID NO:34), 10 nmol; Calbiochem), or K10 (Tyr-Asn-Trp-Asn-Ser-Phe-Gly-Leu-Arg-Phe-NH2 (SEQ ID NO:35), 10 nmol; Calbiochem) was administered simultaneously with glucose during ipGTT. The glucagon receptor antagonist GAI (N-(3-Cyano-6-(1,1-dimethylpropyl)-4,5,6,7-tetrahydro-1-benzothien-2-yl)-2-ethylbutanamide (Qureshi et al., 2004) and its non-active analogue were administered (50 mg/kg i.p. in DMSO) in HFD fed and Lepr^db/db mice 60 min before i. GTT. Intraperitoneal pyruvate converstion (1 g/kg i.p.) test (ipPCT) in ΔL-Prkar1a mice was performed in the fed state (9 am) to avoid any confounding effects of fasting-induced elevated endogenous glucagon levels. Tail-vein blood was collected at the indicated times in figures for glucose and insulin measurements. Serum insulin was measured using mouse magnetic bead panel (Millipore, Luminex). Plasma for glucagon measurements was drawn from mice in the fed state at 9 am, unless otherwise noted for fasting studies. […]

Tyr-Asn-Trp-Asn-Ser-Phe-Gly-Leu-Arg-Phe-NH2 [K10]
islet cAMP production in response to exendin-4 (E4) (Kiss1R [1]; Kiss1Rfl/fl (WT) islets): reduces E4-stimulated cAMP levels
islet cAMP concentrations (Kiss1R [1]; WT mouse islets, 10 mM glucose, 10 nM): reduced cAMP production
GSIS at very high kisspeptin concentration (Kiss1R [2]; Kiss1Rfl/fl and Panc-DKiss1R islets): GSIS stimulation from both Kiss1Rfl/fl and Panc-DKiss1R islets
GSIS from Panc-DKiss1R islets (Kiss1R [2]; islets lacking Kiss1R, nanomolar concentrations): resistant to K10 mediated GSIS suppression
GSIS from Kiss1Rfl/fl (WT) mouse islets (Kiss1R [2]; static incubation, nanomolar concentrations (0-100 nM), 10 or 20 mM glucose): equally effective in suppressing GSIS; also recorded: suppressed GSIS
E4-potentiated GSIS, first and second phase (Kiss1R [3]): suppressed
first (0-10 min after glucose stimulation) and second phases of GSIS (Kiss1R [3]; 10 mM glucose): suppressed
in vivo GSIS in control (Kiss1rfl/fl, WT) mice (Kiss1R [4]; 10 nmol ip with glucose during ipGTT): equally effective in suppressing GSIS; also recorded: suppressed GSIS
glucose tolerance in WT mice (Kiss1R [4]; acute administration, 10 nmol ip): impaired glucose tolerance
